Source: PubChem BioAssay
An excerpt weighted towards active compounds, which were near 2.1% of everything screened.
Nrf2 ARE act – activates Nrf2 signaling; AREc32 ARE-luciferase reporter (MCF7-derived line), luminescence, 24 h; Potency, µM (top dose mostly 46.1 µM), inactives show at the highest dose activation, hits mostly activators; hit rate 0.31% among 410,000; further: potency means the concentration at half of the fitted maximal effect; % of control where 0% means no effect; nearly all actives have a fitted effect of over 65% in size
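Steps: seed AREc32_Fluc cells (1000/well, 5% FBS OPTI-MEM); incubate overnight at 37 deg C; add 23 nL compound; incubate 24 hr; add Steady-Glo; hold 30 min RT; read luminescence.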
Nrf2 inh – blocks Nrf2 signaling | A549 ARE-Fluc reporter, luciferase luminescence, 18-24 h | Potency, µM (top dose mostly 46 µM), for inactives: at the top dose activity change, negative = inhibition, actives largely listed as inhibitors | hit rate 2.1% among 360,000 | AID 504444; further: potency means the concentration at half of the fitted maximal effect; on the % scale 0 is the no-effect control and ±100 the full control effect; nearly all actives have a fitted effect of over 60% in size
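Quantitative HTS in A549 cells stably bearing an antioxidant response element-firefly luciferase construct. Inhibition of Nrf2-driven transcription was scored by luminescence after 18-24 h of compound exposure at 37 °C.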
A549 tox-1 – kills or reduces viability of A549 cells in Nrf2 counter-screen; A549 ARE-Fluc cells, CellTiter-Fluor viability, 18-24 h; Potency, µM (titrated, usually from 46 µM), for the others: top-dose activity change, negative = cytotoxicity, actives largely listed as inhibitors; hit rate 0.16% among 390,000; further: potency means the concentration at half of the fitted maximal effect; on the % scale 0 is the no-effect control and ±100 the full control effect
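A549 ARE-Fluc cells in 5% FBS OPTI-MEM, 5000 cells/well, rested 2 h then exposed to compounds in concentration-response for 18-24 h at 37 °C. Viability by CellTiter-Fluor fluorescence (Ex 405/Em 525) after 30 min; luciferase luminescence (BugLite, 15 min, RT) read afterwards.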
Glioma ERSR ind – induces the endoplasmic reticulum stress response in human glioma cells; Potency, µM, for the others: top-dose activation, actives largely listed as activators; hit rate 0.02% among 420,000; U87-MG GRP78 promoter luciferase reporter, 16 h; further: potency means the concentration at half of the fitted maximal effect; series mostly up to about 76 µM; % of control where 0% means no effect; nearly all actives have a fitted effect of over 35% in size
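Stably transfected U87-MG human glioma cells carrying a GRP78-based luminescent sensor were seeded at 1000 cells/well, pin-dosed with compounds and incubated 16 h. Luciferase reagent was then added, and end-point luminescence was read after 10 min at room temperature.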
miR-21 reporter – miR-21 reporter, rising signal | AID 2288 | HeLa miR-21 FLuc reporter, luciferase, 48 h | 340,000 tested, under 10 active | Potency, µM (titrated, usually from 38.3 µM), for the others: at the top dose reporter change, positive = more light; active = well fitted rising curve with a large enough effect; inconclusive = small, poorly fitted or top-dose-only effect; inactive = no such curve, though single readings can be large or run the other way;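 also: % of control where 0% means no effect; miR-21 action dims this reporter so a rising signal means less miR-21 action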
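Luminescence from a firefly luciferase reporter carrying a miR-21 binding site downstream, stably expressed under a CMV promoter in HeLa cells that make miR-21 endogenously, reports miRNA modulation after 48 h compound exposure up to approximately 40uM final.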
TSG101-PTAP inh – blocks PTAP/TSG101 interaction to inhibit HIV-1 budding; Q99816; Fluorescence polarization, FITC-PTAP peptide / Tsg101 binding; Potency, µM (titrated, usually from 115 µM), without a hit: at the top dose activity change, negative = inhibition, most hits filed as inhibitors; 340,000 tested, under 10 active; active means well fitted inhibition curve with a large enough effect in the main read-out, with a control signal flat, not every such curve was filed as active; inconclusive means small, poorly fitted or top-dose-only effect, or effect the other way, or a change in a side signal; inactive means no such curve, though single readings can be large or run the other way; further: potency means the concentration at half of the fitted maximal effect; % of control where 0% means no effect
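Compounds were pin-transferred onto Tsg101 binding domain (10 uM final) in HEPES pH 7.5 buffer, then FITC-PTAP peptide was added at 50 nM final. After 20 min at RT, polarization reported peptide displacement across a qHTS concentration series.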
FLuc counter 3 – counter-screen for Nrf2 inhibitors: firefly luciferase enzyme inhibition. shares compounds with Nrf2 inh. purified firefly luciferase, luminescence inhibition. Potency, µM (series often up to 57.5 µM), without a hit: at the highest dose activity change, negative = inhibition, hits mostly inhibitors. hit rate 4% among 1,400; further: potency means the concentration at half of the fitted maximal effect; on the % scale 0 is the no-effect control and ±100 the full control effect; nearly all actives have a fitted effect of over 65% in size
A549 tox-2 – toxic to A549 ARE-Fluc cells in Nrf2 counterscreen; shares compounds with Nrf2 inh; Potency, µM (titrated, usually from 46.1 µM), for the others: at the top dose activity change, negative = cytotoxicity, hits mostly inhibitors; AID 720523; A549 ARE-Fluc cells, cytotoxicity counterscreen; hit rate 2% among 1,400;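 further: potency means the concentration at half of the fitted maximal effect; cells exposed to compounds for 18 to 24 hours; on the % scale 0 is the no-effect control and ±100 the full control effect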
ARE-Fluc inh – Nrf2 inhibition confirmed, A549 ARE-luciferase | hit rate 74% among 1,400 | AID 720524 | A549 ARE-firefly luciferase reporter, luminescence | Potency, µM (titrated, usually from 46.1 µM), for the others: at the highest dose activity change, negative = inhibition, most hits filed as inhibitors | shares compounds with Nrf2 inh; further: potency means the concentration at half of the fitted maximal effect; on the % scale 0 is the no-effect control and ±100 the full control effect; nearly all actives have a fitted effect of over 65% in size
The depositor's hits bear a star. Unless noted, the call rests on the fitted dose curve; in most records, active means well fitted curve in the direction sought with a large enough effect; inconclusive means small, poorly fitted or top-dose-only effect, or another doubt; inactive means no such curve, though single readings can be large; an effect the other way counts as inactive or inconclusive.

For O=C(NCc1ccncc1)C(=O)N/N=C/c1ccc(OCc2ccccc2)cc1 the results were Nrf2 ARE act 4%, Nrf2 inh -6%, A549 tox-1 -2%, Glioma ERSR ind 3%, miR-21 reporter -7% and TSG101-PTAP inh -5%.
`COc1ccc(N2CCN(C(=O)COc3cccc4ccccc34)CC2)cc1` gave Nrf2 ARE act -1%, Nrf2 inh 2.6µM*, A549 tox-1 inconclusive, Glioma ERSR ind -2%, miR-21 reporter -12%, TSG101-PTAP inh -3%, FLuc counter 3 -6%, A549 tox-2 8% and ARE-Fluc inh -5%.
`O=C(COc1cccc2ccccc12)N1CCN(c2ccccc2)CC1` gave Nrf2 ARE act 1%, A549 tox-1 2%, Glioma ERSR ind -1%, miR-21 reporter -8% and TSG101-PTAP inh -4%.
Screening COc1ccc(S(=O)(=O)Nc2ccc(F)cc2)cc1N(C)S(=O)(=O)c1ccc(Cl)cc1 returned Nrf2 ARE act 8%, Nrf2 inh inconclusive, A549 tox-1 -29%, Glioma ERSR ind 0%, miR-21 reporter 27% and TSG101-PTAP inh -11%.
For COc1ccc(NC(=O)COc2ccc(N(C)S(=O)(=O)c3ccc(Cl)cc3)cc2)cc1OC the results were Nrf2 ARE act 2%, Nrf2 inh 9.2µM*, A549 tox-1 -9%, Glioma ERSR ind -5%, TSG101-PTAP inh -1%, FLuc counter 3 3%, A549 tox-2 -11% and ARE-Fluc inh 6.5µM*.
`COc1ccc(NS(=O)(=O)c2ccc(OC)c(N(C)S(=O)(=O)c3ccc(Cl)cc3)c2)cc1` gave Nrf2 ARE act 6%, Nrf2 inh 7.3µM*, A549 tox-1 inconclusive, Glioma ERSR ind 0%, miR-21 reporter 22%, TSG101-PTAP inh -1%, FLuc counter 3 -10%, A549 tox-2 inconclusive and ARE-Fluc inh 8.2µM*.
Screening O=C(C[n+]1ccccc1Br)c1ccc2c(c1)CCCC2 returned Glioma ERSR ind -1%.
`Cn1c2ccccc2c(=O)c2cc(C#CC3(O)CCCCC3)ccc21` gave Nrf2 ARE act 0%, Nrf2 inh inconclusive, A549 tox-1 4%, Glioma ERSR ind -10% and miR-21 reporter -17%.
`Cc1cc2sc3ccc(C#CC4(O)CCCCC4)cc3c(=O)c2cc1C` gave Nrf2 ARE act -1%, Nrf2 inh 0.21µM*, A549 tox-1 -4%, Glioma ERSR ind -11%, FLuc counter 3 0.085µM*, A549 tox-2 -17% and ARE-Fluc inh 9.2µM*.
`CC(CC(C)(C)C)CP(=O)(O)CC(C)CC(C)(C)C` (stereo not given) gave Glioma ERSR ind -1%.
For CC(=NNC(=S)N1CCC1)c1ccccn1 the results were Nrf2 ARE act inconclusive, Nrf2 inh 0.13µM*, A549 tox-1 inconclusive, Glioma ERSR ind -3%, TSG101-PTAP inh -1%, FLuc counter 3 -18%, A549 tox-2 inconclusive and ARE-Fluc inh 0.65µM*.
Screening O=c1cc(N2CCN(c3cccc(Cl)c3)CC2)[nH]c(=O)n1C1CCCCC1 returned Nrf2 ARE act -1%, Nrf2 inh inconclusive, A549 tox-1 inconclusive, Glioma ERSR ind -2%, miR-21 reporter 15%, TSG101-PTAP inh -2%, FLuc counter 3 -1% and A549 tox-2 inconclusive.
For O=c1cc(N2CCN(c3ccccc3)CC2)[nH]c(=O)n1C1CCCCC1 the results were Nrf2 ARE act 1%, Nrf2 inh -6%, A549 tox-1 inconclusive, Glioma ERSR ind -5%, miR-21 reporter 9% and TSG101-PTAP inh 0%.
CC(=O)N/C(=C/c1ccccc1)c1ccncc1 was read as Glioma ERSR ind -4%.
Screening Cc1cc(C)cc(C(=O)Nc2ccc(-c3cn4cccnc4n3)cc2)c1 returned Nrf2 ARE act 0%, Nrf2 inh 9.2µM*, A549 tox-1 0%, Glioma ERSR ind 19%, miR-21 reporter 1%, FLuc counter 3 1%, A549 tox-2 -1% and ARE-Fluc inh inconclusive.
`O=C(Nc1ccc(-c2cn3cccnc3n2)cc1)c1ccccc1F` gave Nrf2 ARE act -1%, A549 tox-1 -6%, Glioma ERSR ind -4% and miR-21 reporter -34%.
`Cc1nn(Cc2ccccc2)c(Cl)c1/C=N/NC(=O)c1cccnc1` gave Nrf2 ARE act 8%, Nrf2 inh inconclusive, A549 tox-1 inconclusive, Glioma ERSR ind 0%, miR-21 reporter 0% and TSG101-PTAP inh -11%.
Cc1c(/C=N/NC(=O)c2cccnc2)c2ccccc2n1Cc1ccccc1 was read as Nrf2 ARE act 3%, Nrf2 inh 6.5µM*, A549 tox-1 inconclusive, Glioma ERSR ind -4%, miR-21 reporter 3%, TSG101-PTAP inh -2%, FLuc counter 3 inconclusive, A549 tox-2 -8% and ARE-Fluc inh 9.2µM*.
`CCCCOc1ccccc1NC(=O)c1scc2c1OCCO2` gave Nrf2 ARE act 6%, Nrf2 inh 5.2µM*, A549 tox-1 1%, Glioma ERSR ind -2%, miR-21 reporter 11%, TSG101-PTAP inh -1%, FLuc counter 3 -14%, A549 tox-2 4% and ARE-Fluc inh 6%.
O=C(c1ccccc1)N1CCC(c2nc(-c3ccc(S(=O)(=O)NCC4CCCO4)cc3)no2)CC1 (stereo not given) was read as Nrf2 ARE act 2%, Nrf2 inh 3.7µM*, A549 tox-1 -13%, Glioma ERSR ind -1%, miR-21 reporter 6%, TSG101-PTAP inh -8%, FLuc counter 3 -2%, A549 tox-2 -2% and ARE-Fluc inh 5.8µM*.
O=C(C1CC1)N1CCC(c2nc(-c3ccc(S(=O)(=O)NCC4CCCO4)cc3)no2)CC1 (stereo not given) was read as Nrf2 ARE act 0%, A549 tox-1 -4%, Glioma ERSR ind 0%, miR-21 reporter 14% and TSG101-PTAP inh 1%.

An excerpt from further up, as a working copy:
`O=C(Nc1ccc(-c2cn3cccnc3n2)cc1)c1ccccc1F` gave Nrf2 ARE act -1%, A549 tox-1 -6%, Glioma ERSR ind -4% and miR-21 reporter -34%.
`Cc1nn(Cc2ccccc2)c(Cl)c1/C=N/NC(=O)c1cccnc1` gave Nrf2 ARE act 8%, Nrf2 inh inconclusive, A549 tox-1 inconclusive, Glioma ERSR ind 0%, miR-21 reporter 0% and TSG101-PTAP inh -11%.
